{
  "source": "patent US20080182893A1",
  "about": "“Anti-Atherogenic Composition” (SAN-EI GEN F.F.I., INC., priority 2005, published 2008)",
  "experiment": "Solubility in water",
  "data": [
    {"substance": "enzymatically modified isoquercitrin [EMIQ]", "values": [
      {"measurement": "solubility in water", "result": "readily soluble in water"}
    ]}
  ]
}
